This is an account of results in PMC8744557, “Engineering the Catalytic Properties of Two-Domain Laccase from Streptomyces griseoflavus Ac-993” (International Journal of Molecular Sciences, 2021).

Protein sequences, listed by entry. Tags and fused reporters are not part of them. Residues count along the entry.
UniProt A0A0M4FJ81, 40-322: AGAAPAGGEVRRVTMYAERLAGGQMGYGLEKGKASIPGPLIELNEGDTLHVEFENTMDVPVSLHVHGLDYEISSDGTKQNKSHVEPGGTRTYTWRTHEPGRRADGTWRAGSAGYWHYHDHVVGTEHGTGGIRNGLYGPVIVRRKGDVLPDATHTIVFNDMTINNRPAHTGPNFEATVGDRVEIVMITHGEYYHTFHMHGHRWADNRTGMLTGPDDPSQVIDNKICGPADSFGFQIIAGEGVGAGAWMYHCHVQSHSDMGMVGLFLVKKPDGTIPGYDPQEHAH

The target in the experiment is SgfSL (SgfSLwt) (Streptomyces griseoflavus, UniProt A0A0M4FJ81). The experiment can be described thus: residual ABTS oxidation activity with inhibitor. The settings on record: 0.5 mM ABTS, optimal pH (4.0), 30 °C, 50 mM Britton-Robinson buffer.

SMILES strings stand for the structures.

`[N-]=[N+]=N`: the “The Residual Activity (%) in the Presence of 10 mM of NaN3” value is given as 23 ± 1%.
